OPERA 2.9 data: melting point values

Values as listed in the OPERA 2.9 repository of K. Mansouri.

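OPERA's authors assembled the values from existing databases and did not measure them anew. A listed value is a point estimate from one report or more. How each value was measured is not recorded, so precision varies. The measured form (salt, isomer or mixture) is not always the one drawn. Some upstream entries may be estimates or bounds without being marked so.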

Melting points are in °C. Cells with "n/a" have no entry in this list.

| structure (SMILES) | name | mp (°C) |
|---|---|---|
| O=C(O)c1cc2c(ccc3ccccc32)[nH]1 | 3H-Benzo[e]indole-2-carboxylic acid | 214 |
| C=CC(=O)Cc1c(C(C)c2cc(C(C)(C)CC)cc(C(C)(C)CC)c2O)cc(C(C)(C)CC)cc1C(C)(C)CC (stereo unspecified) | n/a | 118.5 |
| CCCSc1nsc(N)n1 | 3-(Propylsulfanyl)-1,2,4-thiadiazol-5-amine | 55 |
| CC1(C)Nc2ccccc2NC1=O | 3,3-dimethyl-3,4-dihydroquinoxalin-2(1H)-one | 180 |
| Nc1ccc(S(=O)(=O)Nc2cccc(C(F)(F)F)c2)cc1 | 4-Amino-N-[3-(trifluoromethyl)phenyl]benzene-1-sulfonamide | 114 |
| CCOC(=O)C(C)(O)c1ccc(Oc2ccccc2)cc1 (stereo unspecified) | Ethyl 2-(4-phenoxyphenyl)lactate | -14.3 |
| Nc1nnc(-c2cccc([N+](=O)[O-])c2)o1 | 5-(3-nitrophenyl)-1,3,4-oxadiazol-2-amine | 257 |
| Nc1ncc(Cc2cccc(F)c2)s1 | 5-(3-fluorobenzyl)-1,3-thiazol-2-amine | 83 |
| O=[N+]([O-])c1cc(S(=O)(=O)N2CCCCC2)ccc1Cl | 1-(4-Chloro-3-nitrobenzene-1-sulfonyl)piperidine | 62 |
| CCCCCCCCCCCCCCCC[N+](C)(C)CC(=O)[O-] | n/a | 61.6 |
| O=C(Nc1ccc2nn(C3CCCC3)nc2c1)c1ccc(Cl)cc1 | 4-Chloro-N-(2-cyclopentyl-2H-benzotriazol-5-yl)benzamide | 180 |
| CCC(CC)C1CC(C)(O)CCO1 (stereo unspecified) | 2H-Pyran-4-ol, 2-(1-ethylpropyl)tetrahydro-4-methyl- | -62.1 |
| ClCc1nnnn1-c1ccccc1 | 5-(chloromethyl)-1-phenyl-1H-tetrazole | 59 |
| Cc1c(Br)c2ccc(F)cc2n1S(=O)(=O)c1ncn(S(=O)(=O)N(C)C)n1 | Amisulbrom | 129.3 |
| CCCCCCCCCCCCCCCC=CCC(CC(=O)O)C(=O)O (stereo unspecified) | Butanedioic acid, 2-(2-octadecen-1-yl)- | 60.73 |
| CC(C)C=NCC1(C)CC(N=CC(C)C)CC(C)(C)C1 (stereo unspecified) | n/a | -73 |
| CCC(=O)CC(C)CC (stereo unspecified) | 5-Methyl-3-heptanone | -56.7 |
| COc1cc(OC)cc(C(=O)Nc2ccc(C(=O)O)c(O)c2)c1 | 4-[(3,5-dimethoxybenzoyl)amino]-2-hydroxybenzoic acid | 220 |
| O=C(O)c1cnns1 | 1,2,3-thiadiazole-5-carboxylic acid | 104 |
| Cc1ccc(NC(=O)CCl)c(Br)c1 | N-(2-bromo-4-methylphenyl)-2-chloroacetamide | 170 |
| CC1(C)C2CCC1(CS(=O)(=O)O)C(=O)C2.O=C(O)C(c1ccccc1Cl)N1CCc2sccc2C1 (stereo unspecified) | n/a | 165.5 |
| Cc1oc(N)c(C#N)c1C | 2-Amino-4,5-dimethyl-3-furonitrile | 166 |
| CC(=O)NCC(=O)NCC(=O)O | N-Acetylglycylglycine | 175 |
| O=C(O)C1CCCN(S(=O)(=O)c2ccccc2)C1 (stereo unspecified) | 1-(phenylsulfonyl)piperidine-3-carboxylic acid | 122 |
| CC1CCN(Cc2ccc(N)cc2)CC1 | 4-[(4-methylpiperidin-1-yl)methyl]aniline | 62 |
| CN1CCN(C(=O)[C@H](OCc2ccccc2)[C@@H](OCc2ccccc2)[C@H](OCc2ccccc2)[C@@]2(COCc3ccccc3)COC(C)(C)O2)CC1 | n/a | 91 |
| C[C@@H]1C[C@@H](O)CC(C)(C)C1=O | Cyclohexanone, 4-hydroxy-2,2,6-trimethyl-, (4R,6R)- | 49.3 |
| C=CC(=O)OCC(O)COCCCCOCC(O)COC(=O)C=C (stereo unspecified) | 1,4-Bis(3-acryloxy-2-hydroxypropoxy)butane | -58 |
| COc1ccc(Nc2ccccc2C(=O)O)cc1 | Anthranilic acid, N-(4-methoxyphenyl)- | 185 |
| CC(=O)OCC=Cc1ccccc1 | 3-Phenylprop-2-en-1-yl acetate | -3.7 |
| CCN(CC)CCOC(=O)C1(c2ccccc2)CCCC1.Cl | Caramiphen hydrochloride | 146 |
| CCOc1ccc(C(=O)O)cn1 | 6-ethoxynicotinic acid | 185 |
| COC1(OC)CCC2=C(CC[C@@H]3[C@@H]2CC[C@]2(C)C(=O)CC[C@@H]32)C1 | 3,3-Dimethoxyestr-5(10)-en-17-one | 115.2 |
| Cc1ccc(C)c(NC(=S)NN)c1 | N-(2,5-Dimethylphenyl)hydrazinecarbothioamide | 163 |
| O=C(O)c1ccc(C(c2ccc(C(=O)O)c([N+](=O)[O-])c2)(C(F)(F)F)C(F)(F)F)cc1[N+](=O)[O-] | n/a | 236.5 |
| C=C(C)CC1CCCCCCCCCCC1=O (stereo unspecified) | 2-(2-Methylprop-2-en-1-yl)cyclododecan-1-one | -66 |
| COc1ccc(Cl)cc1NC(=O)CCl | 2-chloro-N-(5-chloro-2-methoxyphenyl)acetamide | 102 |
| O=C(CCl)Nc1ccc(F)c(F)c1 | 2-chloro-N-(3,4-difluorophenyl)acetamide | 107 |
| COc1ccc(C=C(C(=O)O)c2cccs2)cc1 | 2-Thiopheneacetic acid,a-[(4-methoxyphenyl)methylene]- | 206 |
| O=C(O)CCNC(=O)c1cccs1 | 3-[(thien-2-ylcarbonyl)amino]propanoic acid | 221 |
| CC(=O)C(N=Nc1ccc(C)cc1[N+](=O)[O-])C(=O)Nc1ccc(Cl)cc1 (stereo unspecified) | n/a | 236 |
| COc1ccc(C2CCC(=O)CC2)cc1 | 4-(4-methoxyphenyl)cyclohexanone | 74 |
| O=[N+]([O-])c1cc(Br)ccc1I | 4-Bromo-1-iodo-2-nitrobenzene | 85 |
| N#CCCn1cnc2ccccc2c1=O | 3-(4-oxoquinazolin-3(4H)-yl)propanenitrile | 143 |
| O=C(O)Cn1cc(Br)c(=O)[nH]c1=O | (5-bromo-2,4-dioxo-3,4-dihydropyrimidin-1(2H)-yl)acetic acid | 267 |
| Cc1ccc(Nc2nnc(S)s2)cc1 | 5-(4-Methylanilino)-1,3,4-thiadiazole-2-thiol | 220 |
| C[Si](Cl)(Cl)CCC(F)(F)C(F)(F)C(F)(F)C(F)(F)C(F)(F)C(F)(F)F | Dichloromethyl((perfluorohexyl)ethyl)silane | 2.25 |
| CC(C)CCC(C)Nc1ccc(N)cc1 (stereo unspecified) | 1,4-Benzenediamine, N1-(1,4-dimethylpentyl)- | 51.5 |
| NCc1ccc(OCc2ccccc2)cc1 | 4-Benzyloxybenzylamine | 52 |
| Cn1cc(C(O)=Nc2ccc(F)cc2-c2ccc(Cl)c(Cl)c2)c(C(F)F)n1 | Bixafen | 147 |
| CC(C)(C)CCCCC(=O)O | Neononanoic acid | -73 |
| Br.COc1ccc(C)cc1C(CCN(C(C)C)C(C)C)c1ccccc1 (stereo unspecified) | n/a | 181.6 |

Extract of 5 entries:

{"smiles": "COc1ccc(C2CCC(=O)CC2)cc1", "name": "4-(4-methoxyphenyl)cyclohexanone", "mp (°C)": "74"}
{"smiles": "Cc1ccc(Nc2nnc(S)s2)cc1", "name": "5-(4-Methylanilino)-1,3,4-thiadiazole-2-thiol", "mp (°C)": "220"}
{"smiles": "COc1ccc(Nc2ccccc2C(=O)O)cc1", "name": "Anthranilic acid, N-(4-methoxyphenyl)-", "mp (°C)": "185"}
{"smiles": "O=C(O)c1cc2c(ccc3ccccc32)[nH]1", "name": "3H-Benzo[e]indole-2-carboxylic acid", "mp (°C)": "214"}
{"smiles": "O=[N+]([O-])c1cc(S(=O)(=O)N2CCCCC2)ccc1Cl", "name": "1-(4-Chloro-3-nitrobenzene-1-sulfonyl)piperidine", "mp (°C)": "62"}